Measured values taken from US9156811B2 (priority 2008, dated 2015).

Amino acid sequences for entries named in this document (tags omitted).
UniProt P30419, whole entry: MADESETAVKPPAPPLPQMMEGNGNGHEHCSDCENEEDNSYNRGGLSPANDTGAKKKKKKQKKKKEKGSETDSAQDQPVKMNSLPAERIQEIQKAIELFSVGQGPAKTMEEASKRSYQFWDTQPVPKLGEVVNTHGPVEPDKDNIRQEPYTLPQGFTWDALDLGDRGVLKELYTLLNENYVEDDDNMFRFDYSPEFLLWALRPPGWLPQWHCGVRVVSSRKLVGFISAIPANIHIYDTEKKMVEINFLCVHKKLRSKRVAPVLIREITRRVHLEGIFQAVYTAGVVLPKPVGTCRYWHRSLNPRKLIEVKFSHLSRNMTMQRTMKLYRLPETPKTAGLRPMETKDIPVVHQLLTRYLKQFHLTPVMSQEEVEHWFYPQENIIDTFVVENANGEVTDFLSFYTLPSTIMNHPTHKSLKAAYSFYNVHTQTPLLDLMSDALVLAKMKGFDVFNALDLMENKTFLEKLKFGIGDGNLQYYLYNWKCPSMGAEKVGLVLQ

Biological target: human NMT-1 (Homo sapiens (Human), UniProt P30419)
Test: NMT enzyme inhibition scintillation proximity assay, human NMT-1
Type: biochemical
Details: read-out: IC50 (μM) NMT Enzyme (HuNMT-1), value in parentheses

For `Cc1c(N(C(F)F)S(=O)(=O)c2c(Cl)cc(Br)cc2Cl)c(CC(C)C)nn1C`, the IC50 was 1.3 µM.
